ChEMBL document CHEMBL5543099 (Eur J Med Chem, 2024)

How the values were obtained:
[1] = test system: Staphylococcus aureus; assay: Antimicrobial activity against Staphylococcus aureus ATCC 29213 assessed as inhibition of bacterial growth incubated for 16 to 18 hrs by CLSI protocol based Muller Hinton broth assay; format: functional; conditions: time 16-18 hrs
[2] = test system: Staphylococcus aureus; assay: Antibacterial activity against Staphylococcus aureus assessed as inhibition of bacterial growth incubated for 6 hrs in presence of 50% fetal bovine plasma by CLSI protocol based Muller Hinton broth assay; format: functional
[3] = test system: Staphylococcus aureus; assay: Antibacterial activity against Staphylococcus aureus assessed as inhibition of bacterial growth incubated for 6 hrs in presence of 50% fetal bovine serum by CLSI protocol based Muller Hinton broth assay; format: functional
[4] = test system: Escherichia coli; assay: Antimicrobial activity against Escherichia coli ATCC 25922 assessed as inhibition of bacterial growth incubated for 16 to 18 hrs by CLSI protocol based Muller Hinton broth assay; format: functional; conditions: time 16-18 hrs
[5] = test system: Staphylococcus aureus; assay: Antibacterial activity against Staphylococcus aureus assessed as inhibition of bacterial growth incubated for 6 hrs in presence of defibrinated sheep 50% plasma by CLSI protocol based Muller Hinton broth assay; format: functional
[6] = Hemolytic activity in defibrinated sheep RBC incubated for 1 hrs; format: toxicity, cell-based, Ovis aries, Erythrocyte; conditions: defibrinated sheep red blood cells

SMILES: CC[C@H](C)[C@H](NC(=O)CN)C(=O)NCC(=O)N[C@@H](C)C(=O)N[C@H](C(=O)N[C@@H](CC(C)C)C(=O)N[C@@H](CCCCN)C(=O)N[C@H](C(=O)N[C@@H](CC(C)C)C(=O)N[C@H](C(=O)N[C@H](C(=O)NCC(=O)N[C@@H](CC(C)C)C(=O)N1CCC[C@H]1C(=O)N[C@@H](C)C(=O)N[C@@H](CC(C)C)C(=O)N[C@H](C(=O)N[C@@H](CO)C(=O)N[C@@H](Cc1c[nH]c2ccccc12)C(=O)N[C@H](C(=O)N[C@@H](CCCCN)C(=O)N[C@@H](CCCNC(=N)N)C(=O)N[C@@H](CCCCN)C(=O)N[C@@H](CCCNC(=N)N)C(=O)N[C@@H](CCC(N)=O)C(=O)N[C@@H](CCC(N)=O)C(N)=O)[C@@H](C)CC)[C@@H](C)CC)[C@@H](C)O)[C@@H](C)O)C(C)C)C(C)C [MELITTIN]
- MIC [1]: 4 µg/mL (≈ 1.41 µM)
- MIC [2]: 128 µg/mL
- MIC [3]: 128 µg/mL
- MIC [4]: 4 µg/mL (≈ 1.41 µM)
- MIC [5]: 128 µg/mL
- HC50 at 1 h [6]: 12.5 µg/mL

Converted amounts (≈) assume the structure as drawn.
